# Results reported in patent publication US20230212123A1, “Pyridine Inhibitors of Glucosylceramide Synthase and Therapeutic Methods Using the Same” (THE REGENTS OF THE UNIVERSITY OF MICHIGAN, priority 2020, published 2023).
# Columns and labels:
# [1] = system: glucosylceramide (GlcCer) in brain and liver; experiment: Reduction of brain and liver glucosylceramide in CBE mice; assay type: in vivo; conditions: dose 109 µmol/kg, 14 days, D409V/null mice with CBE 25 mg/kg/day ip
# Procedure: The in vivo assay measured the reduction in brain and liver glucosylceramide and glucosylsphingosine levels in mice on a D409V background concurrently treated with conduritol B epoxide (CBE), an irreversible inhibitor of GBA (beta-glucocerebrosidase).
# Reduction of Brain and Liver Glucosylceramide and Glucosylsphingosine in CBE Mice
# The reduction by inhibitors of GCS in brain glucosylceramide and glucosylsphingosine content was determined by the use of mice with Gba 1 mutant alleles, termed D409V/null. These are knock-in mice with a Gba 1 point mutation encoding Valine (V) 409 for the wild type (WT) Aspartate (D) on one missense allele and a null heteroallele [D409V/null (9V/null)]. The D409V/null and WT littermates were of mixed gender and mixed, but matched, genetic backgrounds of C57BL/129Sv/FVB. […] The mice were sacrificed 2 hours following the last injection and tissues including brain, liver, spleen, kidney and lung were analyzed for glucosylceramide and glucosylsphingosine by mass spectrometry. […]
# The analysis of neutral glycosphingolipids from mouse liver, kidney, and brain was processed after alkaline methanolysis. […] GlcCer levels were quantified by comparison to known standards.
# [2] = Pharmacokinetics in mice: plasma and brain drug AUC; assay type: in vivo; conditions: over 7 hrs following single IP injection at 10 mg/kg
# From the text: The pharmacokinetics of selected compounds of structural formula (I) and structurally-related compounds in the prior art lacking an aromatic nitrogen atom are summarized in Table 3.
substance,measurement,setting,value
"2-(2,3-dihydro-1H-inden-2-yl)-N-((1R,2R)-1-hydroxy-1-(6-methoxypyridin-3-yl)-3-(pyrrolidin-1-yl)propan-2-yl)acetamide [Example 1]",CBE mouse GlcCer reduction in brain,[1]; brain,37%
same,CBE mouse GlcCer reduction in liver,[1]; liver,50%
same,Brain AUC/Plasma AUC,[2],0.11
same,Brain drug AUC,[2],94 ng·h/g
same,Plasma drug AUC,[2],895 ng·h/mL
